Laboratory results published in BindingDB's records for doi:10.1021/acs.jmedchem.7b00805 (Sahmyook University, 2017).

Sequences of proteins named here, by UniProt entry; tags and fusion partners are left off. A change or cut given only in a name is not applied to a line headed by its entry.
UniProt P37231: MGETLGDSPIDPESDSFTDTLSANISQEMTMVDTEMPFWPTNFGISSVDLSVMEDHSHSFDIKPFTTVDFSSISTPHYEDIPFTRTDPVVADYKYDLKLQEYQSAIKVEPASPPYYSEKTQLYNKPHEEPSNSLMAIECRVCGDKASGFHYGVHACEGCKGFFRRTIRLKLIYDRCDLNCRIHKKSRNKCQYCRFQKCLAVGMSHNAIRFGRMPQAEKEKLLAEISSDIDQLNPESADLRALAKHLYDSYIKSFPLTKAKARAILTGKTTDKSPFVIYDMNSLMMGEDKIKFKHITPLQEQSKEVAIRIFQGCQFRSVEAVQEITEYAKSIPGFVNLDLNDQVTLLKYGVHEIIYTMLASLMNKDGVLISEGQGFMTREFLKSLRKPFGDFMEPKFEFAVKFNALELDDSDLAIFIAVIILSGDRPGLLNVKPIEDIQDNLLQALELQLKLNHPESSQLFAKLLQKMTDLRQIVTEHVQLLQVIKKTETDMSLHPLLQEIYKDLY

Biological target: Peroxisome proliferator-activated receptor gamma (Homo sapiens, UniProt P37231)
Assay: ChEBML_1669056

Structure (SMILES): O[C@@H]1[C@H](O)CS[C@H]1n1cnc2c(NCc3cccc(I)c3)nc(Cl)nc21 [(2R,3R,4S)-2-(6-(3-iodobenzylamino)-2-chloro-9H-purin-9-yl)-tetrahydrothiophene-3,4-diol]
- Ki: 3.4 µM
